What all share (assay type): cell-based
For one assay, the target named is Flag-Gcn2 M802F (Homo sapiens, UniProt Q9P2K8, M802F). The assay can be described thus: Atf4-Luc translational reporter, Gcn2 KO HEK293 cells expressing Flag-Gcn2 M802F. As to conditions: read-out: A-92 IC50 (Atf4-Luc), A-92 only, 6 h.
The target of a further assay is Flag-Gcn2 M802V (Homo sapiens, UniProt Q9P2K8, M802V). The experiment in a line: Atf4-Luc translational reporter, Gcn2 KO HEK293 cells expressing Flag-Gcn2 M802V. Particulars: read-out: A-92 IC50 (Atf4-Luc), A-92 only, 6 h.
Assay [1] concerns the target T1, Gcn2 (Homo sapiens, UniProt Q9P2K8). The assay can be described thus: Immunoblot of ISR markers (p-Gcn2, p-eIF2α, Atf4) in HEK293 cells with endogenous Gcn2 (End. WT). As to conditions: 1 μM A-92 or 2 μM 2B-Act pretreatment 30 min, then 50 nM Gcn2iB 6 h. A general note: Immunoblotting shows a protein as a band on a membrane.
Assay [2] has as its target T1, Gcn2. The experiment in a line: P(AAREx6)-Luc Atf4 transcriptional activity reporter in HEK293 cells. Particulars: for IC50: read-out: A-92 IC50 (P(AAREx6)-Luc).
Another assay has as its target Flag-Gcn2 WT (Homo sapiens, UniProt Q9P2K8). The experiment in a line: Atf4-Luc translational reporter, Gcn2 KO HEK293 cells expressing Flag-Gcn2 WT. As to conditions: read-out: A-92 IC50 (Atf4-Luc); Flag-Gcn2 WT + HF: A-92 pretreatment 30 min, then 25 nM HF 6 h.

Chains of the proteins cited; added tags and fusions are not shown. Lines headed by an entry give the natural chain unless they say otherwise; changes in a name come on top.
UniProt Q9P2K8, whole entry: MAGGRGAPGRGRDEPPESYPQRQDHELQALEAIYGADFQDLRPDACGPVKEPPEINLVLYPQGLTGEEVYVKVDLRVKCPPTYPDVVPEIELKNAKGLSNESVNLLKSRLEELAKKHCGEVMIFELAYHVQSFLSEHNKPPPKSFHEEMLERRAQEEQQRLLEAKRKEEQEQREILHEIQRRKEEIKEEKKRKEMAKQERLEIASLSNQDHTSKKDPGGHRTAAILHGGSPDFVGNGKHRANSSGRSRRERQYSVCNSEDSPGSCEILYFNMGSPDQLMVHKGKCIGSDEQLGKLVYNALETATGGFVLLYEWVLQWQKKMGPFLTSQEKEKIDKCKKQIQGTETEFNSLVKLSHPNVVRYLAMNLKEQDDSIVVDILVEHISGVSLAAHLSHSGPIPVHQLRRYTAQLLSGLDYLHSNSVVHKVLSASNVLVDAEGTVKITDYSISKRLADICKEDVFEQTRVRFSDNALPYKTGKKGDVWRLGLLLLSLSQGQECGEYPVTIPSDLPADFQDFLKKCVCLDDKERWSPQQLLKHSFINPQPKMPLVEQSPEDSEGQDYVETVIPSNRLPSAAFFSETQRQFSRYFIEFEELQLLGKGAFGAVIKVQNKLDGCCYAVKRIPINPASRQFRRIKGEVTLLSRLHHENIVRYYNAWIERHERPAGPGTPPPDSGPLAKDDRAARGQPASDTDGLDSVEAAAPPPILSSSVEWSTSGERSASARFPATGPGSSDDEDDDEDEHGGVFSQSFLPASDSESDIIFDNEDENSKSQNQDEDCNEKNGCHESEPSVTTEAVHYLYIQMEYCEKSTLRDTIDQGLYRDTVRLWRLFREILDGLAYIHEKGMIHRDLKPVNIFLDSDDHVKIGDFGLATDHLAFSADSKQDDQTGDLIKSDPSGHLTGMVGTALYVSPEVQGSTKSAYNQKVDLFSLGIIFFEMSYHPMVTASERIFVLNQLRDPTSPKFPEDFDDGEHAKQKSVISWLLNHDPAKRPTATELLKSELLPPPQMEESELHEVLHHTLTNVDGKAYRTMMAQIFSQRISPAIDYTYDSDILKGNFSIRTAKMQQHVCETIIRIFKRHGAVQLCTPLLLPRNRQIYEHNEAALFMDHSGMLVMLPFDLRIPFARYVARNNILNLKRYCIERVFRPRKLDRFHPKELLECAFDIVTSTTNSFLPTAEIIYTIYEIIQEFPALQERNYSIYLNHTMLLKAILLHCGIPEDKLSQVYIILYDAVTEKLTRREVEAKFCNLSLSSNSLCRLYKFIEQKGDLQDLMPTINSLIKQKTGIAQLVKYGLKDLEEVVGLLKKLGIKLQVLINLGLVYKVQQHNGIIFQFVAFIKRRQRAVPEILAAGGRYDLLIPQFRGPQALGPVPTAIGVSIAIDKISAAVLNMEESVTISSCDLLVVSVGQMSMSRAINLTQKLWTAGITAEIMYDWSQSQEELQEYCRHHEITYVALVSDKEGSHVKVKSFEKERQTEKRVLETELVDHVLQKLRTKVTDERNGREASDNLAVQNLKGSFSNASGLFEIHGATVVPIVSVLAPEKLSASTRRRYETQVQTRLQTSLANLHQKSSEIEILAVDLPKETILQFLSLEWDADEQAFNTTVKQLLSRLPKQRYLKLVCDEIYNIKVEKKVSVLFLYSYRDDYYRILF
UniProt Q9P2K8, whole entry M802F: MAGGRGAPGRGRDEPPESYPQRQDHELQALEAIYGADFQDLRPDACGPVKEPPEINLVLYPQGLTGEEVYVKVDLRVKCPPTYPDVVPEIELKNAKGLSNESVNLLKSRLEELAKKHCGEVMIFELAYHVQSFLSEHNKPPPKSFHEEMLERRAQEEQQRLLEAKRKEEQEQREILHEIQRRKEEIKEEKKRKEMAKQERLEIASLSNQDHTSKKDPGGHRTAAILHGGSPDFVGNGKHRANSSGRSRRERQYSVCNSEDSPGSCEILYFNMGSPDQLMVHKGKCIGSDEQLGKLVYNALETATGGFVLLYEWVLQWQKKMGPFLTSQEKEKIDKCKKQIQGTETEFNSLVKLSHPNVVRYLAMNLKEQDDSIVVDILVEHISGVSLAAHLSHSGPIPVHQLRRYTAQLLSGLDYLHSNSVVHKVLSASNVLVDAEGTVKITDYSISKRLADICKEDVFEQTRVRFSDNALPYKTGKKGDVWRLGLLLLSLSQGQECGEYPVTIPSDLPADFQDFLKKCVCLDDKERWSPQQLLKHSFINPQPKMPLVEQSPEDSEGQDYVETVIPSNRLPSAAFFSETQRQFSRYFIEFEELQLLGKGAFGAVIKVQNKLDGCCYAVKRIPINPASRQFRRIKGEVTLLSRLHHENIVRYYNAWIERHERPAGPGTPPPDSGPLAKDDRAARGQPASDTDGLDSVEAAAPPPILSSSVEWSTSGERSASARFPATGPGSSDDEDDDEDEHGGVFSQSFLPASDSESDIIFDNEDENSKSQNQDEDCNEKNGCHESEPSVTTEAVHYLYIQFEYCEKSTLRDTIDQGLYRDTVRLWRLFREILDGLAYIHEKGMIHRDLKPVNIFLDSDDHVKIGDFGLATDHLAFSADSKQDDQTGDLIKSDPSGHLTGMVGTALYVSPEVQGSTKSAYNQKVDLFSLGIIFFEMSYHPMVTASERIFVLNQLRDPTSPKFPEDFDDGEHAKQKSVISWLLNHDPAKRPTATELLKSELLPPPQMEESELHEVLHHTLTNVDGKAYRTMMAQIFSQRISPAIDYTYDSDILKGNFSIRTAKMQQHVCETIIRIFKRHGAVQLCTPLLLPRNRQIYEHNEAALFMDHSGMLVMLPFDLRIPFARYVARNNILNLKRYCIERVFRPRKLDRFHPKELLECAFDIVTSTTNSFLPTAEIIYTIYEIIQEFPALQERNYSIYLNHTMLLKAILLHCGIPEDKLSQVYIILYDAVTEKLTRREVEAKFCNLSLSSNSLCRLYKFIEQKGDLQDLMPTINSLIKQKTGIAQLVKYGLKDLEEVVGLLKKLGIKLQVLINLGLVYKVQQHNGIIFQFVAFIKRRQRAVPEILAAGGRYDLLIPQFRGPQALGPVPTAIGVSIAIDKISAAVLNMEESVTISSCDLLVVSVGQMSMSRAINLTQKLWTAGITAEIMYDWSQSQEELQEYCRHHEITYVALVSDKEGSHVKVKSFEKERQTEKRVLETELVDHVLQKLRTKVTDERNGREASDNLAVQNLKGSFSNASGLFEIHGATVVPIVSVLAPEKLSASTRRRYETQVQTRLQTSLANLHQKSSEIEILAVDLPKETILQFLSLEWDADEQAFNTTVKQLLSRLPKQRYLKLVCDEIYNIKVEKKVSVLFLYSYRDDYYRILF
UniProt Q9P2K8, whole entry M802V: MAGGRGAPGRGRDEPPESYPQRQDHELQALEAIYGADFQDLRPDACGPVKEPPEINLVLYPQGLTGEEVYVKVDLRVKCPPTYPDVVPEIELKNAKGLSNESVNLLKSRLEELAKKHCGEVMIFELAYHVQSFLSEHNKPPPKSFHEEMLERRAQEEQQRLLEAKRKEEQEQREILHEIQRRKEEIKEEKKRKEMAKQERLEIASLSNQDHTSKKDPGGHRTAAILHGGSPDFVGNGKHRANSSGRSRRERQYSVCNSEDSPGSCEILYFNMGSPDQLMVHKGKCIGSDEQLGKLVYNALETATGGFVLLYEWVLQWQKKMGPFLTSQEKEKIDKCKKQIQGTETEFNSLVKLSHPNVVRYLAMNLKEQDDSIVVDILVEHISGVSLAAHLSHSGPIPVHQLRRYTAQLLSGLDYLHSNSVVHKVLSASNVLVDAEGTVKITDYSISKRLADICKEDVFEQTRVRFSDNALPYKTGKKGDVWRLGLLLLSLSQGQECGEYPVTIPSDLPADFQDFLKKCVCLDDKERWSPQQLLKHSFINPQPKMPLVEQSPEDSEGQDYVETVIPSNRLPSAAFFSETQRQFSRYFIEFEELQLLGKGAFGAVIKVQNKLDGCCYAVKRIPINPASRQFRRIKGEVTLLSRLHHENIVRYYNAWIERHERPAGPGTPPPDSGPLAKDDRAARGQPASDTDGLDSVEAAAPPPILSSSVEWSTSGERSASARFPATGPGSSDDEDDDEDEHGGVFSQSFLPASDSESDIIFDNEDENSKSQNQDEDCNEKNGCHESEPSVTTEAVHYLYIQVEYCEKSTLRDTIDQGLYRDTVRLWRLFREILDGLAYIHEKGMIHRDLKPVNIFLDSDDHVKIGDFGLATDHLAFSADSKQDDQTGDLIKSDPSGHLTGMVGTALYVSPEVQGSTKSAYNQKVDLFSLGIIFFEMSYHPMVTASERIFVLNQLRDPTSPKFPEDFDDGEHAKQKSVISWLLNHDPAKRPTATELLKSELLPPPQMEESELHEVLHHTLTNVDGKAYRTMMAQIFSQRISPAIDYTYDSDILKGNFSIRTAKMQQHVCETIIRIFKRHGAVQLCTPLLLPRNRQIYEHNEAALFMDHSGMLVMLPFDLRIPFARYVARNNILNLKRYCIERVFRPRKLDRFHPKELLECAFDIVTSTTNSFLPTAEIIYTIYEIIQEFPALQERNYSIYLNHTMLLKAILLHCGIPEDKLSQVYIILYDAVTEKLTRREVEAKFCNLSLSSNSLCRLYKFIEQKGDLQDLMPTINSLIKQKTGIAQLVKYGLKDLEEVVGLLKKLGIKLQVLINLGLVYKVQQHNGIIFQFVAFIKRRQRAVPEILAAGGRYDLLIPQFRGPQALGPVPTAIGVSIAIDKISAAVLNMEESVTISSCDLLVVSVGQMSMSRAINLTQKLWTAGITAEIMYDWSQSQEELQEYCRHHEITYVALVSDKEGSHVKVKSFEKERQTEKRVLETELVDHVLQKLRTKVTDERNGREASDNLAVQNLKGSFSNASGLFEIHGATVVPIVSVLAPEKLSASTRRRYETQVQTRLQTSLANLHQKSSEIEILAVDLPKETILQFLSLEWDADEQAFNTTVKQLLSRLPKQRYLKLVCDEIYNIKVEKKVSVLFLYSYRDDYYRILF

Here are results for one compound from PMC10124904, “Activation of Gcn2 by small molecules designed to be inhibitors” (The Journal of Biological Chemistry, 2023).

Where “and” joins values, the source holds several entries; their conditions need not be identical. Equal values may be shown once. Read-outs that look alike come from different tables or passages of the source. Some results are limits rather than exact numbers.

A word on the IC50: it is the midpoint of a concentration-inhibition curve.

As to `c1nn(C2CCOCC2)cc1Nc1ncc2nnn(-c3ccc4cn[nH]c4c3)c2n1`, the IC50 is 85 nM at Flag-Gcn2 M802F; 266 nM on Flag-Gcn2 M802V; 579 nM at Gcn2 [2] (agonist 12.5 nM halofuginone, 6 h, A-92 pretreatment 30 min); 84.9 nM and < 100 nM on Gcn2 [2] (agonist 31.25 nM Gcn2iB, 6 h, A-92 pretreatment 30 min); 289 nM at Gcn2 [2] (agonist 1 μM borrelidin, 6 h, A-92 pretreatment 30 min); 69.1 nM and < 100 nM at Gcn2 [2] (agonist 1 μM neratinib, 6 h, A-92 pretreatment 30 min). Moreover, the IC50 at Flag-Gcn2 WT is > 4000 nM. In addition, the “effect of cotreatment on Gcn2iB-induced p-eIF2α and Atf4 levels” value at Gcn2 [1] was “lowered p-eIF2α and Atf4 levels”. Moreover, the “A-92 concentrations that significantly reduced P(AAREx6)-Luc activity” value at Gcn2 [2] (A-92 pretreatment 30 min, cells induced by 12.5 nM HF or 31.25 nM Gcn2iB, 6 h) is given as “greater than 125 nM”. The “effect on biphasic induction of luciferase activity by Gcn2iB” value on Gcn2 [2] (pretreated 30 min with 1 μM A-92 or 2 μM 2B-Act, then Gcn2iB 6 h) is recorded as “ablated”.
